By UniProt entry, the sequences of proteins in these tests, tags left out.
UniProt P20272, whole entry: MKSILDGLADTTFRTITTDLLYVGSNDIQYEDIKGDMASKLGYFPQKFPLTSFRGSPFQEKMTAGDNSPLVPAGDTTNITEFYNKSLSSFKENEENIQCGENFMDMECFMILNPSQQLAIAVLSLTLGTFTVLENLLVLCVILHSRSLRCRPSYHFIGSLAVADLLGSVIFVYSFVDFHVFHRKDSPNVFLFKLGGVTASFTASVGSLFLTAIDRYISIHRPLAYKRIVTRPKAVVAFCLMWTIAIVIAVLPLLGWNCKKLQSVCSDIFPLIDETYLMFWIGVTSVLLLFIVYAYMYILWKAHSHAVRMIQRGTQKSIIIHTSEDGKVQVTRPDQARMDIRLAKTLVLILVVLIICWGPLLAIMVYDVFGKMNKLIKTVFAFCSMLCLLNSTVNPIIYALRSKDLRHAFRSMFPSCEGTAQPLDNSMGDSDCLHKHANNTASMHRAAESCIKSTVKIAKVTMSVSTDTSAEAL

In ChEMBL document CHEMBL1129689, “Unsaturated side chain beta-11-hydroxyhexahydrocannabinol analogs” (J Med Chem, 1996):

Target: Cannabinoid receptor 1 (Rattus norvegicus, UniProt P20272)
Experiment: Compound was evaluated for its ability to displace specifically bound [3H]CP-55940 from a Cannabinoid receptor 1 enriched rat brain microsome preparation.

CCCCCCCc1cc(O)c2c(c1)OC(C)(C)[C@@H]1CC[C@@H](CO)C[C@@H]21
Ki: 8.7 nM
